Test results from article PMC9494680 (ACS Omega, 2022).

Tests used:
TF1 cells [1] = assay: Caspase 3/7 flow cytometric apoptosis analysis; assay type: cell-based, human; details: TF1, IC50 value, 72 h
TF1 cells [2] = assay: Annexin V and dead cell flow cytometric apoptosis analysis; assay type: cell-based, human; details: TF1, treated at IC50 value

N#CC[C@H](C1CCCC1)n1cc(-c2ncnc3[nH]ccc23)cn1 [ruxolitinib]
Total number of apoptotic cells, caspase 3/7 (TF1 cells [1]): ~50%
Total apoptotic cells, annexin V (TF1 cells [2]; 24 h): ~35%
Total apoptotic cells, annexin V (TF1 cells [2]; 72 h): ~50%
